For orientation: inhibition means the relative decrease from the control value, in per cent.

Only a part is listed here, and it is no random draw. Some of these compounds have results that are not shown, active ones among them. Calls of active or inactive are those of the source.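 How the source made its calls: active means mean inhibition of at least 30% with at least half of replicates also reaching 30%; inconclusive means no clear call, values can overlap the other calls; inactive means the rest.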

This test concerns the target Golgi-associated PDZ and coiled-coil motif-containing protein (Homo sapiens) (UniProt Q9HD26). Briefly: untagged CAL PDZ binding inhibitors, primary screen, biochemical, fluorescence polarization, HTS (AID 602252).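 Further: 0% = DMSO neutral control and 100% = excess unlabeled competitor peptide PRC23.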 The conditions noted are these: purified CAL PDZ, TMR-peptide fluorescence polarization, 1 h; at 24.9 µM; stronger effect = higher value. A general note: Polarisation of emitted light reports the rotation of a fluorescent probe.
`O=C(NCC1(N2CCCCC2)CCCCC1)c1cc(F)c(F)cc1Cl`: the inhibition was inactive: -2.42%. Regarding `C=CCN1CCN(CCOC(=O)C(O)(c2ccccc2)c2ccccc2)CC1`, the inhibition was inactive: 8.85%. The value for `O=C(NCC1(N2CCCCC2)CCCCC1)c1cccc(Br)c1` was inactive: -2.91%; that for `Cc1cc(C(=O)NCC2(N3CCCCC3)CCCCC2)ccc1[N+](=O)[O-]` was inactive: -4.69%. The value for `CCN1CCCC(OC(=O)C2(O)c3ccccc3C=Cc3ccccc32)C1` (centres undefined) was inactive: -3.54%. Under `COc1ccc(C(=O)NCC2(N(C)C)CCCCC2)cc1` stands inactive: 2.13%.

Consider `CN(C)C1CCCC1OC(=O)C(O)(c1ccccc1)c1ccccc1` (centres undefined), for which the inhibition was inactive: -5.53%. The value for `CN(C)c1ccc(C(=O)NCC2(N(C)C)CCCCC2)cc1` was inactive: -7.86%; that for `Cc1ccccc1C(=O)NCC1(N2CCCCC2)CCCCC1` was inactive: -2.43%.

In the case of `CC(C)N1C(=O)CC2(CCN(CCOC(=O)C(O)(c3ccccc3)c3ccccc3)CC2)C1=O`, the inhibition is inactive: 0.732%. Consider `COc1cc(SC)ccc1C(=O)NCC1(N(C)C)CCCCC1`, for which the inhibition is inactive: -1.76%. Under `CCN(CC)CC(C)C(C)OC(=O)C(O)(c1ccccc1)c1ccccc1` (centres undefined) stands inactive: -0.688%; under `Cc1ccc(C(=O)NCC2(N3CCCCC3)CCCCC2)cc1`, inactive: -4.1%.

Take `O=C(NCC1(N2CCCCC2)CCCCC1)c1cc([N+](=O)[O-])ccc1Cl`: the inhibition was inactive: 12.2%. The value for `CN1[C@@H]2CC[C@H]1CC(OC(=O)C(O)(c1ccccc1)c1ccccc1)C2` (some centres undefined) was inactive: 3.34%; that for `COc1ccc(Br)c(C(=O)NCC2(N3CCCCC3)CCCCC2)c1` was inactive: -3.43%; that for `O=C(OCCN1CCCC1)C(O)(c1ccccc1)c1ccccc1` was inactive: -4%. Under `CC(C)Oc1ccc(C(=O)NCC2(N(C)C)CCCCC2)cc1` stands inactive: 0.12%; under `O=C(OC1CN2CCC1CC2)C(CO)(c1ccccc1)c1ccccc1` (centres undefined), inactive: -4.04%. Under `COc1ccc(Cl)cc1C(=O)NCC1(N(C)C)CCCCC1` stands inactive: 1.54%. As to `COc1cccc(C(=O)NCC2(N3CCCCC3)CCCCC2)c1`, the inhibition is inactive: 4.61%. The value for `O=C(NCC1(N2CCCCC2)CCCCC1)c1cccc(Cl)c1` was inactive: 3.94%; that for `CN(C)C1(CNC(=O)c2ccc(Br)cc2)CCCCC1` was inactive: -5.37%; that for `COc1cc(C(=O)NCC2(N(C)C)CCCCC2)c([N+](=O)[O-])cc1OC` was inactive: -8.3%.

Source of the values: PubChem BioAssay AID602252 (Broad Institute, 2012).
